Apparent affinities of Ab-91 variants for a coronavirus HR2 peptide

Target: peptide PDVDLGDISGINAS, taken from heptad repeat 2 (HR2) of SARS-CoV-2 spike.

Ab-91 is the parent antibody, in scFv form: VL, then a 15-residue (Gly4Ser)3 linker, then VH. The light chain is unchanged in all variants.
VL: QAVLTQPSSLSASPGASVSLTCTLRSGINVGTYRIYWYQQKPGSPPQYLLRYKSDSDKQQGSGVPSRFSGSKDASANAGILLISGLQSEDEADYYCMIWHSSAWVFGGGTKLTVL
VH: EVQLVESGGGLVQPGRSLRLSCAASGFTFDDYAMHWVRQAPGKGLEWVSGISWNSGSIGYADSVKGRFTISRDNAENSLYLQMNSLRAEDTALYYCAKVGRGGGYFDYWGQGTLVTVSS

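The library (AAYL51) carries one to three amino acid substitutions per variant, with no insertions or deletions. In AlphaSeq, yeast of one mating type display the scFv and yeast of the other type display the target. Mating (16 h, 30 °C) was followed by selection of diploids and sequencing of their barcodes. Scores were corrected for input abundance and mapped to Kd with protein pairs of known affinity run in the same pool. Mating was done three times.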

Each variant is given by its three heavy chain CDRs, as the data file delimits them; those of the parent are GFTFDDYAMH, GISWNSGSIGYADSVK, VGRGGGYFDY. The read-out is the apparent dissociation constant on a log10 scale (nM): the lower, the stronger. Replicates are averaged; those with no signal do not enter the mean. "nd" means that the variant was in the library but no mating with the target was seen in any replicate; the authors take this as a sign of poor binding, and no number exists. As a blank, each scFv also met three strains without target: over library AAYL51, 21% of these pairings were detected, typically at 4.54 and seldom below 3.26. In this assay the parent's reference entry averaged 1.86; its copy inside this library read 0.88.

{"CDR-H1": "GFTFDDYAMH", "CDR-H2": "GISWNSGQIGYLDSVK", "CDR-H3": "VGRGGGYTDY", "log10 Kd (nM), mean": "4.29", "detected": "1 of 3"}
{"CDR-H1": "GFTFDDYAMK", "CDR-H2": "GISWNSGSEGPADSVK", "CDR-H3": "VGRGGGYFDY", "log10 Kd (nM), mean": "5.59", "detected": "1 of 3"}
{"CDR-H1": "SFIFDMYAMH", "CDR-H2": "GISWNSGSIGYADSVK", "CDR-H3": "VGRGGGYFDY", "log10 Kd (nM), mean": "nd", "detected": "0 of 3"}
{"CDR-H1": "GFTFDMYAMH", "CDR-H2": "GISWLSGSIGYADSVK", "CDR-H3": "VGRGGGYFDS", "log10 Kd (nM), mean": "2.21", "detected": "1 of 3"}
{"CDR-H1": "GFTFDDYAMQ", "CDR-H2": "GISWNSGSIIYADSEK", "CDR-H3": "VGRGGGYFDY", "log10 Kd (nM), mean": "nd", "detected": "0 of 3"}
{"CDR-H1": "GFTFDDYYMH", "CDR-H2": "GISENSGSFGYADSVK", "CDR-H3": "VGRGGGYFDY", "log10 Kd (nM), mean": "nd", "detected": "0 of 3"}
{"CDR-H1": "QFLFDDYAMH", "CDR-H2": "GISWCSGSIGYADSVK", "CDR-H3": "VGRGGGYFDY", "log10 Kd (nM), mean": "nd", "detected": "0 of 3"}
{"CDR-H1": "GFTFDDYAMH", "CDR-H2": "GISINSGSIGYLDSVK", "CDR-H3": "RGRGGGYFDY", "log10 Kd (nM), mean": "nd", "detected": "0 of 3"}
{"CDR-H1": "GFTFDDYAMI", "CDR-H2": "GISWNSGSIGYADRVK", "CDR-H3": "VGRGGGYFDM", "log10 Kd (nM), mean": "nd", "detected": "0 of 3"}
{"CDR-H1": "GFTFDDYAMY", "CDR-H2": "GISWNCGSIGYADSVK", "CDR-H3": "MGRGGGYFDY", "log10 Kd (nM), mean": "nd", "detected": "0 of 3"}
{"CDR-H1": "GFTFDDYAMH", "CDR-H2": "GISKNSGSIGYADSVK", "CDR-H3": "VGVGGGYFDY", "log10 Kd (nM), mean": "3.28", "detected": "1 of 3"}
{"CDR-H1": "GFTFDDYAMH", "CDR-H2": "GIEWNYGSTGYADSVK", "CDR-H3": "VGRGGGYFDY", "log10 Kd (nM), mean": "3.96", "detected": "1 of 3"}
{"CDR-H1": "GFTFDDYAMH", "CDR-H2": "GDSWNSGAIGYADSVK", "CDR-H3": "VGRGGGYTDY", "log10 Kd (nM), mean": "5.77", "detected": "1 of 3"}
{"CDR-H1": "GFTFDDYAMH", "CDR-H2": "GGSWRSGSIGYADSVK", "CDR-H3": "VGRGGRYFDY", "log10 Kd (nM), mean": "4.08", "detected": "1 of 3"}
{"CDR-H1": "GFTFDDYWMH", "CDR-H2": "GISWNSWSIGYADSVK", "CDR-H3": "VGRGGGHFDY", "log10 Kd (nM), mean": "5.28", "detected": "3 of 3"}
{"CDR-H1": "GFTFDDYAMH", "CDR-H2": "GISWNSWSIGYADSVS", "CDR-H3": "VSRGGGYFDY", "log10 Kd (nM), mean": "4.71", "detected": "3 of 3"}
{"CDR-H1": "GFTFDDYAMH", "CDR-H2": "GISWNSGSIGQADSVK", "CDR-H3": "VGNGGGYWDY", "log10 Kd (nM), mean": "3.50", "detected": "1 of 3"}
{"CDR-H1": "GFTFDDYAMH", "CDR-H2": "GISWNSGVIGYADLVK", "CDR-H3": "VGRGGGWFDY", "log10 Kd (nM), mean": "2.23", "detected": "1 of 3"}
{"CDR-H1": "GFTFYDYAMH", "CDR-H2": "GISWNSGSIGYADSVH", "CDR-H3": "VGRGGGYCDY", "log10 Kd (nM), mean": "nd", "detected": "0 of 3"}
{"CDR-H1": "GFTFDDYAFH", "CDR-H2": "GISWNSGSIMYAMSVK", "CDR-H3": "VGRGGGYFDY", "log10 Kd (nM), mean": "nd", "detected": "0 of 3"}
{"CDR-H1": "GYTFDDYAMH", "CDR-H2": "GISWNSGSIGYADSVL", "CDR-H3": "KGRGGGYFDY", "log10 Kd (nM), mean": "nd", "detected": "0 of 3"}
{"CDR-H1": "GFQFDDYWMH", "CDR-H2": "GIWWNSGSIGYADSVK", "CDR-H3": "VGRGGGYFDY", "log10 Kd (nM), mean": "4.89", "detected": "1 of 3"}
{"CDR-H1": "PFTFDDYAMH", "CDR-H2": "GISNNSGSIGYADSVW", "CDR-H3": "VGRGGGYFDY", "log10 Kd (nM), mean": "5.35", "detected": "1 of 3"}
{"CDR-H1": "GDTFDDYAMH", "CDR-H2": "GIEWNSGSIGKADSVK", "CDR-H3": "VGRGGGYFDY", "log10 Kd (nM), mean": "nd", "detected": "0 of 3"}
{"CDR-H1": "GFTFDDYAMH", "CDR-H2": "GISWNSGSGGYAFSVN", "CDR-H3": "VGRGGGYFDY", "log10 Kd (nM), mean": "nd", "detected": "0 of 3"}
{"CDR-H1": "GFTFDAYAMH", "CDR-H2": "GISWNSGSIGYADSVK", "CDR-H3": "VGRKHGYFDY", "log10 Kd (nM), mean": "4.91", "detected": "3 of 3"}
{"CDR-H1": "GFTFDDYAMH", "CDR-H2": "GISWNSTSIGYADWVK", "CDR-H3": "VGRGGGYFDY", "log10 Kd (nM), mean": "nd", "detected": "0 of 3"}
{"CDR-H1": "GFTFDDYAMH", "CDR-H2": "GISPNSGSIGYADKVK", "CDR-H3": "VGRGGGYFDY", "log10 Kd (nM), mean": "1.41", "detected": "3 of 3"}
{"CDR-H1": "GFTFDDYAMH", "CDR-H2": "GISPNSGSIQYADSVK", "CDR-H3": "VIRGGGYFDY", "log10 Kd (nM), mean": "nd", "detected": "0 of 3"}
{"CDR-H1": "GFTFKDYAMH", "CDR-H2": "GIKWNSGSIGYADKVK", "CDR-H3": "VGRGGGYFDY", "log10 Kd (nM), mean": "4.58", "detected": "1 of 3"}
{"CDR-H1": "GFTFDDYAMH", "CDR-H2": "GQSWNSGSIGYADSVK", "CDR-H3": "VLRGFGYFDY", "log10 Kd (nM), mean": "nd", "detected": "0 of 3"}

From the list, the first 3 with no signal in any replicate:

CDR-H1	CDR-H2	CDR-H3	log10 Kd (nM), mean	detected
SFIFDMYAMH	GISWNSGSIGYADSVK	VGRGGGYFDY	nd	0 of 3
GFTFDDYAMQ	GISWNSGSIIYADSEK	VGRGGGYFDY	nd	0 of 3
GFTFDDYYMH	GISENSGSFGYADSVK	VGRGGGYFDY	nd	0 of 3

Data: MIT Lincoln Laboratory AlphaSeq set, Engelhart et al. 2022, doi:10.1038/s41597-022-01779-4, as distributed in FLAb.